{"sequences": {"note": "Protein sequences, listed by entry. Tags and fused reporters are not part of them.", "UniProt Q01196, whole entry, looked up": "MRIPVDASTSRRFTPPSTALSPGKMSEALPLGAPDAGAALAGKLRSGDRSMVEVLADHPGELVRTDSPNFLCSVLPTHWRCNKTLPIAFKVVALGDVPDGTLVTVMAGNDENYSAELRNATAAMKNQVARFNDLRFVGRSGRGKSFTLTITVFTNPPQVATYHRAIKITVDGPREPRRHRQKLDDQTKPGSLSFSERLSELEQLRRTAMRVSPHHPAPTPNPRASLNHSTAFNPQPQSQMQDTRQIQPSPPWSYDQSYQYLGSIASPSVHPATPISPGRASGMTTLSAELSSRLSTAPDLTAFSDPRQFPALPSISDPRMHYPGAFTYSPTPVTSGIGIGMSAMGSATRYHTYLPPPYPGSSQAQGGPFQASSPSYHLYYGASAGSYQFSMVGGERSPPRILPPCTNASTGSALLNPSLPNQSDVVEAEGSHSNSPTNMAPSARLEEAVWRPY", "UniProt Q13951, whole entry, looked up": "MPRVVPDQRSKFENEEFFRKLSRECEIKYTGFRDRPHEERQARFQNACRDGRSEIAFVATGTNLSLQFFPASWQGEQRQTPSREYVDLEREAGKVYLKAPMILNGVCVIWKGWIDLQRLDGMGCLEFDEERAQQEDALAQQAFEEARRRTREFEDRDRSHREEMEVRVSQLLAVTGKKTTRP"}, "source": "PubChem BioAssay AID1438", "about": "(Sanford-Burnham Center for Chemical Genomics, 2008)", "note": "Only a part is listed here, and it is no random draw. Entries with a potency or affinity are not part of this list. Activity calls are given as the source filed them. No rule for the calls is given here."}
{"target": "Runt-related transcription factor 1 (Homo sapiens) + Core-binding factor subunit beta (Homo sapiens) (UniProt Q01196+Q13951)", "assay": "inhibitors of RUNX1 Runt–CBFb-SMMHC binding, biochemical, TR-FRET (AID 1438)", "conditions": "TR-FRET Runt domain–CBFb-SMMHC binding, at 20 µM, stronger effect = higher value"}
{"smiles": "O=P(Nc1nccs1)(c1ccccc1)c1nc2ccccc2s1", "note": "(stereo unspecified)", "inhibition": "inactive: -3.3%"}
